Assays:
human PPARα [1] = molecular target: T1, human PPARα (Homo sapiens, UniProt Q07869); assay: Luciferase transcriptional reporter gene assay, pFA-PPARα-LBD in BHK21 cells; format: cell-based; conditions: Gal4-PPARα-LBD
T1 sequence (Q07869 167-468 limits assumed): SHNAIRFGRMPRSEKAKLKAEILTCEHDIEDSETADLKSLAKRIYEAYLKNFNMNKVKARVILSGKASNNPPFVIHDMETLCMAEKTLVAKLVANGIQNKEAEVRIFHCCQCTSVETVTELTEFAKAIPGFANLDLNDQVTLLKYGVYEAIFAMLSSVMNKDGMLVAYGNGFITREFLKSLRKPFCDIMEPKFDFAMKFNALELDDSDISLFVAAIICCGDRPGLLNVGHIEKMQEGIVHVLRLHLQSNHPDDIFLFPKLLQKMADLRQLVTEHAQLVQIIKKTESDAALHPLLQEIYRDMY

human PPARα [2] = molecular target: T1, human PPARα; assay: PPARα radioligand binding assay (GST-PPARα-LBD fusion protein); parameters: made in house; host or cells: E. coli BL21(pLysS)

- PPARα EC50 (human PPARα [1]): inactive
- PPARα IC50 (human PPARα [2]): inactive
Structure (SMILES): CN(CCOc1ccc(CC2SC(=O)NC2=O)cc1)c1ccccn1 (centres unmarked) [Rosiglitazone, reference compound]

From patent US6890947B2, “Indolyl derivatives” (Hoffmann-La Roche Inc., priority 2002, dated 2005)
